{
  "source": "paper PMC5983452",
  "about": "(PLoS ONE, 2018)",
  "tested_on": "Caco-2 cells",
  "note": "Counter-ions that a name gives are not always drawn.",
  "data": [
    {"smiles": "NC1CCC(S(=O)(=O)N2C3CCC2CC(NC(=O)c2cc(C4CC4)on2)C3)CC1", "note": "[EPZ028862, N-((1R,3R,5S)-8-((1r,4R)-4-aminocyclohexylsulfonyl)-8-aza-bicyclo[3.2.1]octan-3-yl)-5-cyclopropylisoxazole-3-carboxamide hydrochloride]", "values": [
      {"measurement": "Caco-2 assay outcome in words", "value": "both permeable and an efflux substrate"}
    ]}
  ]
}
